Measurements from patent US9611262B2, “Substituted 2-azabicycles and their use as orexin receptor modulators” (JANSSEN PHARMACEUTICA NV, priority 2014, dated 2017).

Protein sequences, listed by entry. Tags and fused reporters are not part of them.
UniProt O43614, whole entry: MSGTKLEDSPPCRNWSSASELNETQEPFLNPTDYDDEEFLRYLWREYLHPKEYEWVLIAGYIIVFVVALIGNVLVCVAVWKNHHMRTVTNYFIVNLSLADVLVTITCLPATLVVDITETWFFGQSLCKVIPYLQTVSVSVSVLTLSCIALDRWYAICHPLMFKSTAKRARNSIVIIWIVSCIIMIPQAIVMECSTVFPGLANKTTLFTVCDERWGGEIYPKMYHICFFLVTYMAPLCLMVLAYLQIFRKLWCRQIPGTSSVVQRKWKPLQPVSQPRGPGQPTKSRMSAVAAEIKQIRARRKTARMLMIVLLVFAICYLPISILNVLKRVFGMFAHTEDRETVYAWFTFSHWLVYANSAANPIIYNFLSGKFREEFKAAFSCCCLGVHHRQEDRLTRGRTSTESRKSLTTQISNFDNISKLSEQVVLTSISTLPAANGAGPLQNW
UniProt O43613, whole entry: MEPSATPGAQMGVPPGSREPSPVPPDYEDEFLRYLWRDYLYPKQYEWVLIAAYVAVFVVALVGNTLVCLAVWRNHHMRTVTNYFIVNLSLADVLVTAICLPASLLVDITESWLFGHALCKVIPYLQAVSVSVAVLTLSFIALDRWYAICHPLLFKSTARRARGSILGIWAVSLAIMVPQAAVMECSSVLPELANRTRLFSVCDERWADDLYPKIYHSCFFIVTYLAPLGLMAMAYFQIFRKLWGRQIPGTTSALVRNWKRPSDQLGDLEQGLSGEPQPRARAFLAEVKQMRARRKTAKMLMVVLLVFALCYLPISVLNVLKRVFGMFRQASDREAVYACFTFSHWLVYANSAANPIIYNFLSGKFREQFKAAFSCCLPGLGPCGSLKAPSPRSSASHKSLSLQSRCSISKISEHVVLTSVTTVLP

Assays:
human orexin 2 receptor = human orexin 2 receptor (Homo sapiens (Human), UniProt O43614); assay: Human orexin 2 receptor radioligand binding ([3H]-EMPA competition); conditions: HEK293 stably expressing human orexin 2 receptor; 2 nM [3H]-EMPA; averages of 2-20 runs; read-out: hOX2 Ki
Description: The in vitro affinity of the compounds of the invention for the rat/human orexin 1 and human orexin 2 receptors was determined by competitive radioligand binding using [^3H](1-(5-(2-fluoro-phenyl)-2-methyl-thiazol-4-yl)-1-((S)-2-(5-phenyl-(1,3,4)oxadiazol-2-ylmethyl)-pyrrolidin-1-yl)-methanone) (Langmead et al., 2004) and [^3H]EMPA (n-ethyl-2[96-methoxy-pyridin-3-yl)-(toluene-2-sulfonyl)-amino]-N-pyridin-3-ylmethyl acetamide), respectively (Langmead et al., 2004, British Journal of Pharmacology 141:340-346; Malherbe et al., 2004, British Journal of Pharmacology 156:1326-41).
Data are analyzed using pc-Sandy macro and graphed on Graphpad Prism 5. For analysis, each concentration point is averaged from triplicate values and the averaged values are plotted on Graphpad Prism. The IC50 was determined by applying the following equation (GraphPad Prism 5.0, San Diego) for one site competition where X=log (concentration) and Y=specific binding. Top denotes the total [^3H]— (1-(5-(2-fluoro-phenyl)-2-methyl-thiazol-4-yl)-1-((S)-2-(5-phenyl-(1,3,4)oxadiazol-2-ylmethyl)-pyrrolidin-1-yl)-methanone) binding, bottom denotes the nonspecific [^3H]— (1-(5-(2-fluoro-phenyl)-2-methyl-thiazol-4-yl)-1-((S)-2-(5-phenyl-(1,3,4)oxadiazol-2-ylmethyl)-pyrrolidin-1-yl)-methanone) binding. Graphpad Prism calculates Ki value from IC50 and the pre-determined Kd values for [^3H]— (1-(5-(2-fluoro-phenyl)-2-methyl-thiazol-4-yl)-1-((S)-2-(5-phenyl-(1,3,4)oxadiazol-2-ylmethyl)-pyrrolidin-1-yl)-methanone) and [^3H]-EMPA. The Ki for each compound is then uploaded into 3DX. Each run comprises individual compounds in triplicate. The data in Table 1 and Table 2 represent averages from between 2-20 runs
Human Orexin 2 Receptor Radioligand Binding Studies
HEK293 stably expressing human orexin 2 receptor (Genebank accession number NM_001526) were grown to confluency in DMEM (Hyclone, cat # SH30022), 10% FBS, 1× Pen/Strep, 1× NaPyruvate, 10 mM HEPES, 600 μg/ml G418 media on 150 cm^2 tissue culture plates, washed with 5 mM EDTA in PBS (HyClone Dulbecco's Phosphate Buffered Saline 1× with Calcium and Magnesium, Cat # SH30264.01, hereafter referred to simply as PBS) and scraped into 50 ml tubes. After centrifugation (2K×G, 5 min at 4° C.), the supernatant was aspirated and the pellets frozen and stored at −80° C. Cells were resuspended in PBS in the presence of 1 tablet of protease inhibitor cocktail (Roche, Cat. #11836145001) per 50 mL. […] Compounds were solubilized in 100% DMSO (Acros Organics, Cat. #61042-1000) and tested over a range of 7 concentration (from 0.1 nM to 10 μM). The final concentration of DMSO in the reactions is equal to or less than 0.1%. Total and nonspecific binding was determined in the absence and presence of 10 μM almorexant. The total volume of each reaction is 200 μL (20 μL of diluted compounds, 80 μL of [^3H]-EMPA diluted in PBS and 100 μL of the cell suspension). Reactions were run for 60 min at room temperature and terminated by filtration through GF/C filter plates (PerkinElmer, Cat. #6005174) presoaked in 0.3% polyethylenimine using the cell harvester (PerkinElmer Filtermate). The plates were washed 3 times by aspirating 30 ml PBS through the plates. Plates were dried in 55° C. oven for 60 min, scintillation fluid was added, and the radioactivity was counted on a Topcount (Packard).

human orexin 1 receptor = human orexin 1 receptor (Homo sapiens (Human), UniProt O43613); assay: Human orexin 1 receptor radioligand binding (competitive); conditions: CHO cells stably expressing human orexin 1 receptor; 4 nM radioligand; averages of 2-20 runs; read-out: hOX1 Ki
Procedure, shortened: (§1)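 Competition binding used HEK293 cells expressing rat OX1 or CHO cells expressing human OX1, with 4 nM final [3H]-labelled thiazolyl-oxadiazolyl-pyrrolidinyl methanone radioligand in PBS. Compounds were tested at 7 concentrations (0.1 nM–10 μM) for 60 min at room temperature, then filtered; 10 μM almorexant defined nonspecific binding. Ki was derived from the one-site IC50 and the radioligand Kd.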

rat orexin 1 receptor = rat orexin 1 receptor (Rattus norvegicus, UniProt P56718); assay: Rat orexin 1 receptor radioligand binding (competitive); conditions: HEK293 cells stably expressing rat orexin 1 receptor; 4 nM radioligand; averages of 2-20 runs; read-out: rOX1 Ki
Procedure, shortened: as §1

Ki (human orexin 2 receptor) | Ki (human orexin 1 receptor) | Ki (rat orexin 1 receptor) | Compound
517 nM | 9 nM | 7 nM | CCC1C2CC(Oc3ccc(C(F)(F)F)cn3)C(C2)N1C(=O)c1nc(C)ccc1-n1nccn1 (racemic) [Example 215, (R/S)-[2-ethyl-5-[[5-(trifluoromethyl)-2-pyridyl]oxy]-3-azabicyclo[2.2.1]heptan-3-yl]-[6-methyl-3-(triazol-2-yl)-2-pyridyl]methanone]
526 nM | 9 nM | 9 nM | CCC1C2CC(Oc3ccc(C(F)(F)F)cn3)C(C2)N1C(=O)c1ccccc1-c1ncc(F)cn1 (racemic) [Example 218, (R/S)-[2-ethyl-5-[[5-(trifluoromethyl)-2-pyridyl]oxy]-3-azabicyclo[2.2.1]heptan-3-yl]-[2-(5-fluoropyrimidin-2-yl)phenyl]methanone]
